Experimental data from patent US20140243210A1, “PURIFICATION OF IMMUNOGLOBULINS USING AFFINITY CHROMATOGRAPHY AND PEPTIDE LIGANDS” (priority 2005, published 2014).

Test system: Fc fragment of human IgG (HIgG)
Experiment: Secondary screening, batch format, competitive and non-competitive modes
Format: binding
Details: first round
Procedure: A secondary screening step was conducted in a batch format to confirm the binding of the target protein to the peptide ligands from the primary screening. Some peptides that bound weakly to the target protein could be eliminated by the secondary screening. A total of nine leads were examined together with two positive controls, Protein A Sepharose Cl-4B and MABsorbent A2P, and two negative controls, acetylated and nonacetylated Toyopearl amino resin (Tosoh Bioscience). The batch format was used in both competitive and non-competitive modes. The non-competitive mode involved screening using only pure target proteins in PBS buffer. For the competitive mode, target proteins were spiked into mammalian culture medium MEM (Minimum Essential Medium) containing 10% fetal calf serum (FCS) and 5% tryptose phosphate broth (TPB).
Two target proteins, the Fc fragment of human IgG (HIgG) and intact HIgG, were applied at a concentration of 1 μM. […] After centrifugation each solution was collected into scintillation fluid for radioactivity counting. The total unbound protein was determined by combining the counts of unbound protein and the wash of PBS. Finally, resins were suspended in scintillation liquid and counted for radioactivity in the same manner, allowing a total radioactivity balance.

## Protein A: protein A immobilized by the CNBr method to 4% cross-linked agarose beads (Amersham Biosciences); positive control [reference compound]
14C-Fc 1 μM in PBS
  Bound %, Fc fragment, Non-competitive: 93.67%
14C-Fc 1 μM spiked in MEM (10% FCS, 5% TPB)
  Bound %, Fc fragment, Competitive: 78.63%
